# Measured values from article PMC9016349.
# Biological target: HOIL‐1 (haem‐oxidised IRP2 ubiquitin ligase‐1), full‐length untagged human, wild type (human) (UniProt Q9BYM8)
substance,measurement,value
Met1‐linked ubiquitin tetramer (untagged linear tetraubiquitin) (from UniProt P0CG48 1-76; P0CG48 1-76; P0CG48 1-76; P0CG48 1-76) (natural protein),"rate of HOIL‐1‐catalysed ubiquitylation of maltoheptaose in vitro (30°C, 2 μM ubiquitin oligomer)",> 100 fold
Lys63‐linked ubiquitin tetramer (untagged) (from UniProt P0CG48 1-76),"rate of HOIL‐1‐catalysed ubiquitylation of maltoheptaose in vitro (30°C, 2 μM ubiquitin oligomer)",> 100 fold
Met1‐linked ubiquitin dimer (untagged linear diubiquitin) (from UniProt P0CG48 1-76; P0CG48 1-76) (natural protein),"rate of HOIL‐1‐catalysed ubiquitylation of maltoheptaose in vitro (30°C, 2 μM ubiquitin oligomer)",> 100 fold
Lys63‐linked ubiquitin dimer (untagged) (from UniProt P0CG48 1-76),"rate of HOIL‐1‐catalysed ubiquitylation of maltoheptaose in vitro (30°C, 2 μM ubiquitin oligomer)",> 100 fold
